Reference: patent publication US7919623B2, “Naphthyridine derivatives having inhibitory activity against HIV integrase” (Shionogi & Co., Ltd., priority 2004, dated 2011)

target: HIV integrase (Human immunodeficiency virus type 1 group M subtype B, UniProt P04585); experiment: biochemical

Compared with `COCCNC(=O)c1nc(C(=O)OCCOC)c2cc(Cc3ccc(F)cc3)cnc2c1O` [Example A-5, 3-(4-fluorobenzyl)-8-hydroxy-7-(2-methoxyethylcarbamoyl)[1,6]naphthyridine-5-carboxylic acid 2-methoxyethyl ester], `COCCNC(=O)c1nc(NC(=O)C(=O)NOC)c2cc(Cc3ccc(F)cc3)cnc2c1O` [Example A-9, N-[3-(4-fluorobenzyl)-8-hydroxy-7-(2-methoxyethylcarbamoyl)[1,6]naphthyridine-5-yl]-N′-methoxy oxalamide] is 13-fold higher in IC50: 0.00984 µM for the first, 0.127 µM for the second.

Compared with `COCCNC(=O)c1nc(C(=O)OC2CCN(C(C)=O)CC2)c2cc(Cc3ccc(F)cc3)cnc2c1O` [Example A-6, 3-(4-fluorobenzyl)-8-hydroxy-7-(2-methoxyethylcarbamoyl)[1,6]naphthyridine-5-carboxylic acid 1-acetylpiperidine-4-yl ester], `COCCNC(=O)C(=O)Nc1nc(C(=O)NN(C)C)c(O)c2ncc(Cc3ccc(F)cc3)cc12` [Example B-25, N-[7-(N′,N′-dimethylhydrazinocarbonyl)-3-(4-fluorobenzyl)-8-hydroxy[1,6]naphthyridine-5-yl]-N′-(2-methoxyethyl)oxalamide] is 3.7-fold higher in IC50: 0.0107 µM for the first, 0.0392 µM for the second. The first is the more potent here.

Going from `CONC(=O)C(=O)Nc1nc(C(=O)NN(C)C)c(O)c2ncc(Cc3ccc(F)cc3)cc12` [Example A-10, N-[7-(N′,N′-dimethylhydrazinocarbonyl)-3-(4-fluorobenzyl)-8-hydroxy[1,6]naphthyridine-5-yl]-N′-methoxy oxalamide] to `CN(C)NC(=O)c1nc(NC(=O)C(=O)N(C)C)c2cc(Cc3ccc(F)cc3)cnc2c1O` [Example B-26, N-[7-(N′,dimethylhydrazinocarbonyl)-3-(4-fluorobenzyl)-8-hydroxy[1,6]naphthyridine-5-yl]-N′,N′-dimethyl oxalamide], the IC50 falls from 0.149 µM to 0.0396 µM (3.8-fold). The second is the more potent here.

`CNC(=O)C(=O)Nc1nc(C(=O)NCCO)c(O)c2ncc(Cc3ccc(F)cc3)cc12` [Example B-27, N-[3-(4-fluorobenzyl)-8-hydroxy-7-(2-hydroxyethylcarbamoyl)[1,6]naphthyridine-5-yl]-N′-methyl oxalamide] and `CNC(=O)C(=O)Nc1nc(C(=O)NCCCN(C)C)c(O)c2ncc(Cc3ccc(F)cc3)cc12` [Example B-29, N-[7-(3-dimethylaminopropylcarbamoyl)-3-(4-fluorobenzyl)-8-hydroxy[1,6]naphthyridine-5-yl]-N′-methyl oxalamide] are within 1.5-fold of each other in IC50: 0.0408 µM for the first, 0.0518 µM for the second.

`CNC(=O)C(=O)Nc1nc(C(=O)NC(C)CO)c(O)c2ncc(Cc3ccc(F)cc3)cc12` (stereo not drawn) [Example B-28, N-[3-(4-fluorobenzyl)-8-hydroxy-7-(2-hydroxy-1-methylethylcarbamoyl)[1,6]naphthyridine-5-yl]-N′-methyl oxalamide] gave an IC50 of 0.0461 µM.
